A short description of the experiment: Selectivity ratio of Ki for PI3Kdelta to Ki for mTOR.

In the case of `CCNC(=O)Nc1ccc(-c2nc3c(c(N4CCOCC4)n2)CCN(c2ncccn2)C3)cc1`, the Ratio Ki came to 130.

(Values after ChEMBL document CHEMBL2176927, “Potent, selective, and orally bioavailable inhibitors of the mammalian target of rapamycin kinase domain exhibiting single agent antiproliferative activity” (J Med Chem, 2012).)
